# Ab-14 heavy chain CDR variants: yeast mating affinities

Values reported by Li et al. 2023, doi:10.1038/s41467-023-39022-2 (FLAb copy).

Target peptide (SARS-CoV-2 spike, HR2 region): PDVDLGDISGINAS

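The parent was found by panning a naive human phage display library on the peptide. These sequences belong to a second round, designed from the earlier measurements on random variants of the parent. Several design methods are mixed in this list. The scFvs were displayed on barcoded MATa yeast, the peptide on MATalpha yeast. Binding brings cells together so that they mate, and sequencing counts the barcode pairs among the diploids. Scores were corrected for input abundance and mapped to Kd with protein pairs of known affinity run in the same pool. The assay was run in six technical replicates.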

The variants keep the light chain, the linker and the frameworks of Ab-14 (scFv order VH, three GGGGS repeats, VL).
VH: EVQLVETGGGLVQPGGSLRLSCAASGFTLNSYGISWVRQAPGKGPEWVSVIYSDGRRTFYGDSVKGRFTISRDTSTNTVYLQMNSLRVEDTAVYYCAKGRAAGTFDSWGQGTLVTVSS
VL: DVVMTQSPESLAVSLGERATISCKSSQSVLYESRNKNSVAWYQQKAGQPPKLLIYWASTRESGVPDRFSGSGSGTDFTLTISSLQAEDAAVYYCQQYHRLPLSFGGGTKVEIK

The parent's heavy chain CDRs are GFTLNSYGIS, VIYSDGRRTFYGDSVK, GRAAGTFDS; each variant's own CDRs replace them letter for letter.
Variants here have more than six changes.
Numbers give log10(Kd / nM), so 0 is 1 nM and 3 is 1 µM. Smaller is tighter.
The mean shown is taken over the replicates in which the pair was detected.
An entry "ND" has no value in the source: the pair was not observed among the diploids in that replicate. This suggests poor binding but is not conclusive.
Background: pairings of all heavy chain designs with three empty control strains gave a value in 1% of cases (median 2.08, 5th percentile 0.84). Values in that range, when seen in few replicates, are hard to tell from nonspecific mating.
In the paper, a design with two or fewer of six values counts as a poor binder.
The range of this assay differs from that of the first round, and the authors advise against merging the two.
Of ten entries with the parent sequence, four were seen in most replicates (averages 0.34 to 2.37), three in one and three in none, so single entries are noisy.

* GFDLDEYGIS, VIYADGKRTAYADSVK, GNEAGTFDM = -0.18, 0.21, -0.07, -0.54, 1.30, 0.03 (mean 0.13)
* GFDLNEYGIS, VIYADGRRTAYTDSVK, GEVAGTFDV = ND, ND, ND, ND, ND, 1.26
* GFDLNEYGIS, VIYADGRRTAYADSVK, GEIAGTFDF = -0.53, -0.15, -0.25, -0.77, -0.75, -0.45 (mean -0.48)
* EFDLNEYGIS, VIYADGHRSFYADHVK, GQVAGIFDM = 2.16, 2.39, 1.40, ND, 1.91, 2.00 (mean 1.97)
* GKSLDEYGVS, VIYADGVRQSYADDVK, GGIAGTFLY = ND, ND, 2.60, ND, 2.34, ND (mean 2.47)
* GFDLNEYGIS, VIYADGRRTFYSDSVK, GTVGGTFDA = -0.10, -0.07, -0.10, -0.12, -0.07, 0.04 (mean -0.07)
* GPNLEEYGIS, VIYADGIRTAYKDSVK, GQVAGIGKF = ND, ND, ND, ND, ND, ND
* GFDLNEYGIS, VIYADGSRVAYANNVK, GKNNAISSN = ND, ND, ND, ND, ND, ND
* GFDFQEYGIS, VIYADGQRANYSDSVK, GNIGAIFSD = ND, ND, ND, ND, ND, ND
* GDSLNEYGIS, VIYADGLRSYYINSVK, GEVDGLFSQ = ND, ND, ND, ND, ND, ND
* GFDLNEYGIS, VIYADGIRTAYADSVK, GGNAGTFDV = -0.56, -0.39, -0.55, -0.25, -0.57, -0.42 (mean -0.46)
* GFDINEYGIS, VIYADGRRTFYADSVK, GNQAGTFDI = -0.04, -0.13, -0.28, -0.14, -0.43, -0.04 (mean -0.18)
* GFDLEKYGIS, VIYADGRRSVYADNVK, GMDGATFGF = ND, ND, ND, ND, ND, ND
* GFDLDEYGIS, VIYADGMRTAYADSVK, GGNAGTFDV = -0.08, -0.25, -0.25, -0.19, 0.09, -0.14 (mean -0.14)
* GFDLNEYGIS, VIYADGMRTAYAESVK, GNVAGTFDV = -0.93, -0.47, -1.20, -0.75, -1.17, -0.92 (mean -0.91)
* GFDLNEYGIS, VIYADGMRTAYIDSVK, GQVAGTFDV = -0.48, -0.60, -0.40, -0.71, -0.49, -0.54 (mean -0.54)
* GFDLDEYGIS, VIYADGQRTAYSDSVK, GQVAGTFDV = -0.70, -0.67, -0.82, -0.86, -0.85, -0.63 (mean -0.75)
* GFDLDEYGIS, VIYADGRRTFYQDSVK, GQVAGTFDQ = -0.88, -0.75, -1.00, -0.77, -0.87, -0.79 (mean -0.84)
* GFGLDEYGIS, VIYADGRRTAYADSVK, GENAGTFDM = -0.61, -0.65, -0.03, -0.39, -0.62, -0.16 (mean -0.41)
* GFNLGEYGIS, VIYADGVRTAYVDKVK, GFNQVDSLI = ND, ND, ND, ND, ND, ND
* GFDLNEYGIS, VIYADGVRTSYVDSVK, GETAGTFDS = -0.19, -0.18, -0.58, -0.79, -0.23, -0.42 (mean -0.40)
* GFDLDEYGIS, VIYADGQRTAYADDVK, GTNAGTFDV = 0.06, 0.39, 0.14, -0.21, 0.02, -0.47 (mean -0.01)
* GFNLSEYGIS, VIYADGRRTAYKDTVK, GVRTWQFDL = ND, ND, ND, ND, ND, ND
* GFDLNEYGIS, VIYADGRRTFYADSVK, GNIAGTFNV = -0.24, -0.36, -0.51, -0.32, -0.56, -0.21 (mean -0.37)
* GFDLNEYGIS, VIYADGRRTFYADSVK, GNQAGTFDF = -0.49, -0.54, -1.02, -0.80, -0.52, -0.36 (mean -0.62)
* GFDLNEYGIS, VIYADGMRTAYADSVK, GENAGTFDE = 0.24, -0.27, -0.62, -0.01, -0.35, -0.12 (mean -0.19)
* GFDLNEYGIS, VIYADGMRTQYADSVK, GQNAGTFDI = 0.84, 0.30, -0.21, 0.41, 0.33, 0.28 (mean 0.33)
* GFNLDEYGIS, VIYADGMRNSYRDKVK, GAHSFDLKT = ND, ND, ND, ND, ND, ND
* GFDLNEYGIS, VIYADGMRTFYADSVK, GETAGTFDL = -0.60, -0.38, -0.49, -1.08, -0.70, -0.88 (mean -0.69)
* GKDLEEYGIS, VIYADGRRTSYIENVK, DGLNDGLFV = ND, ND, ND, ND, ND, ND
* GFSINEYGIS, VIYADGNRSAYIDAVK, GNVGSSFLE = ND, ND, ND, ND, ND, ND
* GFNLDEYGIS, VIYADGQRTAYDQKVK, GRMGTWNIV = ND, ND, ND, ND, ND, ND
* GFDINEYGIS, VIYADGRRTQYADSVK, GEAAGTFDT = 0.45, -0.38, -0.13, -0.03, -0.48, 0.37 (mean -0.03)
* GFDINEYGIS, VIYADGKRTAYADSVK, GNVAGTFDV = -0.32, -0.55, -0.68, -0.24, -0.65, -0.06 (mean -0.42)
* GFDLNEYGIS, VIYADGKRTAYADDVK, GSNAGTFDV = -0.81, -0.15, -0.82, -0.91, -0.84, -0.70 (mean -0.71)
* GFDLNEYGIS, VIYADGKRTFYIDSVK, GENAGTFDM = 0.25, -0.56, -0.08, -0.34, -0.22, -0.19 (mean -0.19)
* GFDLNEYGIS, VIYADGSRQAYADSVK, GNVAGTFDV = -0.31, -0.24, -0.84, -0.49, -0.52, -0.26 (mean -0.44)
* GFDLNEYGIS, VIYADGRRTFYSDSVK, GEVAGTFDV = -0.58, -0.81, -0.45, -0.53, -0.81, -0.84 (mean -0.67)
* GFDLNEYGIS, VIYADGRRTAYSDSVK, GNEAGTFDV = -0.20, -0.37, -0.07, -0.71, 0.11, -0.25 (mean -0.25)
* GFDLDEYGIS, VIYADGMRTAYADNVK, GQVAGTFDI = -0.37, -0.30, -0.31, -0.73, -0.38, 1.43 (mean -0.11)
* GFDLNEYGIS, VIYADGQRTAYADDVK, GNNAGTFDL = -0.39, -0.56, -0.56, -0.45, -0.33, -0.41 (mean -0.45)

Picked from the list: the 5 lowest averages where every replicate gave a value.

- GFDLNEYGIS, VIYADGMRTAYAESVK, GNVAGTFDV -> -0.93, -0.47, -1.20, -0.75, -1.17, -0.92 (mean -0.91)
- GFDLDEYGIS, VIYADGRRTFYQDSVK, GQVAGTFDQ -> -0.88, -0.75, -1.00, -0.77, -0.87, -0.79 (mean -0.84)
- GFDLDEYGIS, VIYADGQRTAYSDSVK, GQVAGTFDV -> -0.70, -0.67, -0.82, -0.86, -0.85, -0.63 (mean -0.75)
- GFDLNEYGIS, VIYADGKRTAYADDVK, GSNAGTFDV -> -0.81, -0.15, -0.82, -0.91, -0.84, -0.70 (mean -0.71)
- GFDLNEYGIS, VIYADGMRTFYADSVK, GETAGTFDL -> -0.60, -0.38, -0.49, -1.08, -0.70, -0.88 (mean -0.69)